The values below come from PubChem BioAssay AID1136 (Sanford-Burnham Center for Chemical Genomics, 2008).

Protein sequences, listed by entry. Tags and fused reporters are not part of them.
UniProt P05186, whole entry: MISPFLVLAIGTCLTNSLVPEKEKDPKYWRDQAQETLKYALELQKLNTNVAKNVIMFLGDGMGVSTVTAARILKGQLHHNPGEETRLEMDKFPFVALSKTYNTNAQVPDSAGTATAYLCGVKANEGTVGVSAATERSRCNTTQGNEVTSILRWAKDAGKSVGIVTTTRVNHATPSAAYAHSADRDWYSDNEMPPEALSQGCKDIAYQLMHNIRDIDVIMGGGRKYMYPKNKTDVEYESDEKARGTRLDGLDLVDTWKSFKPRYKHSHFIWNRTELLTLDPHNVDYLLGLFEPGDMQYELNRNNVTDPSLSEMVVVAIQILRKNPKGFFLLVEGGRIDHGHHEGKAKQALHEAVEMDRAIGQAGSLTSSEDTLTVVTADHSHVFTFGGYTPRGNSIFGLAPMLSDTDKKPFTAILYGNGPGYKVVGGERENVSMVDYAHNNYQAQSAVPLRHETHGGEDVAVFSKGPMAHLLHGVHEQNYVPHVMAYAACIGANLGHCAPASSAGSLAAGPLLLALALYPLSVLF

Each structure is given as a SMILES string. This is one part of the list. The source made the active and inactive calls.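 How the source made its calls: active means activation factor at least 2 at 20 µM; inactive means the rest.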

This assay has as its target Alkaline phosphatase, tissue-nonspecific isozyme (Homo sapiens) (UniProt P05186). In words: activation of human TNAP, high DEA acceptor – biochemical, luminescence, uHTS, primary screen (AID 1136). The conditions noted are these: purified TNAP, CDP-star luminescence, 1 M DEA, 30 min, at 20 µM; hits give high values, 0 = EDTA background, 1 = DMSO-only activity.
As to `Oc1ccccc1CNc1ccccn1`, the activation factor result was “inactive”. As for `O=C(NC(Sc1ccncn1)C(Cl)(Cl)Cl)c1ccccc1` (centres undefined), the activation factor entry was “inactive”.

Regarding `Cc1c2non([O-])c-2c(C)[n+](=O)[n+]1[O-]`, the activation factor result is “inactive”. As for `CP(=O)(Nc1ccccn1)Oc1ccccc1` (centres undefined), the activation factor result is “inactive”. `COc1ccccc1OP(C)(=O)Nc1ccc(C)cc1C` (centres undefined): the activation factor entry was “inactive”. Regarding `CCc1ccc(OP(C)(=O)O)cc1`, the activation factor entry was “inactive”. Consider `CCN(CC)CC(O)COC(=O)C(O)(c1ccccc1)C1CCCCC1` (centres undefined), for which the activation factor entry was “inactive”.

For `COc1ccc(C2=NCC(CBr)S2)cc1` (centres undefined), the activation factor entry is “inactive”. With `COc1ccc(OP(C)(=O)Nc2ccc(Br)cc2)cc1` (centres undefined), the activation factor was inactive: 1.1. Regarding `O=[N+]([O-])c1cccc2n[nH]nc12`, the activation factor entry was “inactive”.

Take `CC(=O)N1C2C3N(C(C)=O)C1C1N(C(C)=O)C(C(N1C(C)=O)N3C(C)=O)N2C(C)=O`: the activation factor result was “inactive”. Under `COc1ccccc1OP(C)(=O)Nc1c(C)n(C)n(-c2ccccc2)c1=O` (centres undefined) stands “inactive”; under `Cc1ccc(NP(=O)(Oc2ccccc2)Oc2ccccc2)nc1`, “inactive”; under `CP(=O)(Oc1ccccc1)N1CCOC1=O` (centres undefined), “inactive”. Consider `CCc1ccc(OP(C)(=O)Nc2cccnc2)cc1` (centres undefined), for which the activation factor entry is “inactive”.

For `COc1ccccc1OP(C)(=O)Nc1ccccc1Br` (centres undefined), the activation factor entry is “inactive”. As to `CC(C)(C)c1ccc(OP(C)(=O)O)cc1`, the activation factor result was “inactive”. As for `CCN(/C(=N/P(=O)(N1CCOCC1)N1CCOCC1)N1CCOCC1)c1ccc(OC)cc1`, the activation factor result was “inactive”.

As for `CP(=O)(Nc1ccc(Cl)cc1)Oc1ccc(F)cc1` (centres undefined), the activation factor is inactive: 1.1. As for `CN(C)C(=O)c1c([N+](=O)[O-])cc([N+](=O)[O-])cc1[N+](=O)[O-]`, the activation factor result was “inactive”. For the molecule `CN(C)C(=O)OCCc1n(C)cc[n+]1C`, the activation factor result was “inactive”. Consider `CCOC(=O)c1ccc(NP(C)(=O)Oc2ccc(Cl)cc2)cc1` (centres undefined), for which the activation factor entry was “inactive”. Under `CP(=O)(OC12CC3CC(CC(C3)C1)C2)OC12CC3CC(CC(C3)C1)C2` stands “inactive”; under `O=[N+]([O-])c1ncn(CCn2ncnc2[N+](=O)[O-])n1`, “inactive”.
